Source: ChEMBL document CHEMBL4834437, “Improvement of Oral Bioavailability of Pyrazolo-Pyridone Inhibitors of the Interaction of DCN1/2 and UBE2M” (J Med Chem, 2021)

Assay: Kinetic solubility of the compound in PBS buffer at pH 7.4 incubated for 18 hrs by LC-MS analysis
Format: physicochemical
Settings: read-out: Kinetic_solubility

| SMILES | solubility kinetic at 18 h |
| --- | --- |
| CCN1C(=O)[C@@H](NC(=O)c2cccc(C(F)(F)F)c2)[C@@H](c2ccc(F)nc2)c2c(C)nn(-c3ccccc3)c21 | 16.6 µM (≈ 8.92 µg/mL) |
| CCN1C(=O)[C@@H](NC(=O)c2cccc(C)c2)[C@@H](c2ccc(F)cc2)c2c(C)nn(-c3ccccc3)c21 (relative stereo) | 16.6 µM (≈ 8.01 µg/mL) |

Converted amounts (≈) assume the structure as drawn.
